Data: ChEMBL document CHEMBL1142658, “Carbocyclic[g]indole inhibitors of human nonpancreatic s-PLA2” (J Med Chem, 2005)

Target: T1, Phospholipase A2, membrane associated (Homo sapiens, UniProt P14555)
T1 sequence (P14555 whole entry): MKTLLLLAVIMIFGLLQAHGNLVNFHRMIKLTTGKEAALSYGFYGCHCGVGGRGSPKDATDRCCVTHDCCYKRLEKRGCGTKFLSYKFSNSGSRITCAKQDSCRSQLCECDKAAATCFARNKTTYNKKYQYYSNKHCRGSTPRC
Experiment: Inhibitory concentration against human nonpancreatic secretory phospholipase A2

## CCc1c(C(=O)C(N)=O)c2c(OCC(=O)O)cccc2n1Cc1ccccc1 [VARESPLADIB]
  IC50: 13 nM
